# Results taken from article PMC7647070, “Mechanisms of QT prolongation by buprenorphine cannot be explained by direct hERG channel block” (PLoS ONE, 2020).
# Sequences of proteins named here, by UniProt entry; tags and fusion partners are left off. A change or cut given only in a name is not applied to a line headed by its entry.
# UniProt Q12809: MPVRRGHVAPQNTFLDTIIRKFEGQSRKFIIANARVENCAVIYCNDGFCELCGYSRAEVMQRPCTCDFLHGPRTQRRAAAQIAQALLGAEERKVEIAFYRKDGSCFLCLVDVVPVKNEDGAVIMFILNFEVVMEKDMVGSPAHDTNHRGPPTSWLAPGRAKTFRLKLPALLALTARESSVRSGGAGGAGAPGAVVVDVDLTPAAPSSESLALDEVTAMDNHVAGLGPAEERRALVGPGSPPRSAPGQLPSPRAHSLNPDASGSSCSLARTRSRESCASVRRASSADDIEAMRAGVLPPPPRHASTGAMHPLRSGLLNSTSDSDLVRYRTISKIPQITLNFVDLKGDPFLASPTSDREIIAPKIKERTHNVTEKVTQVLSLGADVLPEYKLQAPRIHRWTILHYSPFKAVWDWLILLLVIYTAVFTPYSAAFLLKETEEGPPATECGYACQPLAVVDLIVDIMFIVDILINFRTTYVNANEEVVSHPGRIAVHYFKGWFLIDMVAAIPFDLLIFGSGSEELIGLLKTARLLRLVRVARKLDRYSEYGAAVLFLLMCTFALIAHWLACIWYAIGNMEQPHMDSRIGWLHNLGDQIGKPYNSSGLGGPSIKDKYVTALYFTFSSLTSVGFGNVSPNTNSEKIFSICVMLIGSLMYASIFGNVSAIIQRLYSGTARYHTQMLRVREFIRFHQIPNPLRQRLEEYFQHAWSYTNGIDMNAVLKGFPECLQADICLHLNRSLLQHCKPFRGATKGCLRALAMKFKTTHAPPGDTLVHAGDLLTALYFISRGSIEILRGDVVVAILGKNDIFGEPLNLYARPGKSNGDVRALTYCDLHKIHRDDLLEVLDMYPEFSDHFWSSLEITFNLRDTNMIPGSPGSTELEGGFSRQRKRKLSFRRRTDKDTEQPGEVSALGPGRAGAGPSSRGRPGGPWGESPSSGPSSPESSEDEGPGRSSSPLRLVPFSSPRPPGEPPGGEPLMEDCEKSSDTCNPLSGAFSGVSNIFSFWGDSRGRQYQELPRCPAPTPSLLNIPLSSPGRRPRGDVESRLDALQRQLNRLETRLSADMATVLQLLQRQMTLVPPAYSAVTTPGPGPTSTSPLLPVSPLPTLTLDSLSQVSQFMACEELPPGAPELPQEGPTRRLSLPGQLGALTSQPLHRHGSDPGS
# Tests used:
# [1] = molecular target: hERG1a (homomeric hERG channel, IhERG) (Homo sapiens, UniProt Q12809); assay: whole-cell patch clamp, tail current; details: read-out: IC50 (μM) at 37°C from this study (mean ± SD), pH […], tail at -50 mV after […] s at +[…] mV
# [2] = molecular target: hERG1a/1b (heteromeric hERG channel, IhERG) (Homo sapiens, UniProt Q12809); assay: whole-cell patch clamp, tail current; details: read-out: IC50 (μM) at 37°C from this study (mean ± SD), pH […], tail at -50 mV after […] s at +[…] mV
substance,measurement,setting,value
Methadone,IC50,[1],2.8 µM
same,IC50,[2],2.7 µM
